Patent EP4640678A1, “NOVEL OXO-PYRIDINE COMPOUND, PREPARATION METHOD THEREFOR, AND USE THEREOF” (Chengdu Shibeikang Biomedical Technology Co., Ltd., priority 2022, dated 2024)

Tested on: human plasma
Test: determination of in-vitro anticoagulant effect in human plasma (APTT)
Type: biochemical
Conditions: for APTT prolongation rate (%): healthy human plasma, 37°C for 3 min

Structure (SMILES)	APTT prolongation rate (%) (1 µM)	APTT prolongation rate (%) (3 µM)	APTT prolongation rate (%) (10 µM)	EC150 (estimated from the APTT test results in human plasma)
CC[C@@H](C(=O)Nc1ccc(C(N)=O)c(F)c1)n1cc(OC)c(-c2cc(Cl)ccc2-n2cc(C(F)(F)F)nn2)cc1=O [Comparative example 1, (S)-4-(2-(4-(5-chloro-2-(4-(trifluoromethyl)-1H-1,2,3-triazol-1-yl)phenyl)-5-methoxy-2-oxopyridin-1(2H)-yl)butanamido)-2-fluorobenzamide, reference compound]	40.1	69.8	130.1	–
[2H]C([2H])([2H])Oc1cn([C@@H](CC)C(=O)Nc2ccc(C(N)=O)c(F)c2)c(=O)cc1-c1cc(Cl)ccc1-n1cc(C(F)(F)F)nn1 [Compound 21, (S)-4-(2-(4-(5-chloro-2-(4-(trifluoromethyl)-1H-1,2,3-triazol-1-yl)phenyl)-5-(methoxy-d3)-2-oxopyridin-1(2H)-yl)butanamido)-2-fluorobenzamide]	–	76.8	147.6	less than 1 µM
[2H]C([2H])([2H])C([2H])([2H])[C@@H](C(=O)Nc1ccc(C(N)=O)c(F)c1)n1cc(OC)c(-c2cc(Cl)ccc2-n2cc(C(F)(F)F)nn2)cc1=O [Compound 28, (S)-4-(2-(4-(5-chloro-2-(4-(trifluoromethyl)-1H-1,2,3-triazol-1-yl)phenyl)-5-(methoxy)-2-oxopyridin-1(2H)-yl)butanamido-3,3,4,4,4-d5)-2-fluorobenzamide]	35.8	63.3	102.9	–
[2H]c1c([2H])c(-n2cc(C(F)(F)F)nn2)c(-c2cc(=O)n([C@@H](CC)C(=O)Nc3ccc(C(N)=O)c(F)c3)cc2OC)c([2H])c1Cl [Compound 29, (S)-4-(2-(4-(5-chloro-2-(4-(trifluoromethyl)-1H-1,2,3-triazol-1-yl)phenyl-3,4,6-d3)-5-(methoxy)-2-oxopyridin-1(2H)-yl)butanamido)-2-fluorobenzamide]	38.9	73.1	105.5	–
